## Measured affinities in a library of Ab-14 light chain variants

Antigen: PDVDLGDISGINAS, a 14-residue peptide of the SARS-CoV-2 spike HR2 region.

Ab-14 is the parent antibody, in scFv form: VH, then three GGGGS repeats, then VL. The heavy chain is unchanged in all variants.
VH: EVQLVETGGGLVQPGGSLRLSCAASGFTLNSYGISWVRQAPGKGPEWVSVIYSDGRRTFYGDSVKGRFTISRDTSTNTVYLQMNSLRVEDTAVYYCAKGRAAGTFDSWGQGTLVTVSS
VL: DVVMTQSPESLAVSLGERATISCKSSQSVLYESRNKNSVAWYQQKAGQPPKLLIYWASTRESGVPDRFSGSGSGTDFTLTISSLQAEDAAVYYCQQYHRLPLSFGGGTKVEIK

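Designed CDR sequences, proposed from the first random library and measured here. Several design methods are mixed in this list. The assay is AlphaSeq: two haploid yeast populations carry antibody and antigen on their surface. Mating (16 h, 30 °C) was followed by selection of diploids and sequencing of their barcodes. A regression on co-assayed BCL2-family reference pairs converts the normalised counts of each replicate to an apparent Kd. There are six technical replicates.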

The parent's light chain CDRs are KSSQSVLYESRNKNSVA, WASTRES, QQYHRLPLS; each variant's own CDRs replace them letter for letter.
Each Kd is an estimate from the mating assay, the geometric mean of the replicates in which the pair was seen; lower is stronger.
"no signal" means that the variant was in the library but no mating with the target was seen in any replicate; the authors take this as a sign of poor binding, and no number exists.
A sequence measured in both rounds can read differently, since the two assays cover different ranges.
Empty control strains, which show no peptide, gave a signal in 4% of pairings with all light chain designs; the median was 430 nM and 95% of these signals were weaker than 38 nM. No background was subtracted.
The authors averaged sequences with at least three values out of six and counted those with two or fewer as poor binders.

| CDR-L1 | CDR-L2 | CDR-L3 | Kd | replicates with signal |
|---|---|---|---|---|
| NMNVGANFGKEQEQAIA | DVDDRES | QQYQRLPLT | 1.7 nM | 6 of 6 |
| QISMVLNFESAKGMNVA | QMETRVN | QQYDRLPLS | 25 nM | 6 of 6 |
| KSSQSVLYEVRNKNSVA | WASTRES | QQYHRLPLS | no signal | 0 of 6 |
| KQSQQKLYESRNKNSVA | DASTRES | QQYHRLPLS | 610 pM | 6 of 6 |
| KVQQSFLYESRNKNSVA | DASTRES | QQYHRLPLS | 900 pM | 6 of 6 |
| KITATMRFEQKISNNIA | EVTLRSN | QQYYRLPLS | 27 nM | 3 of 6 |
| ALGQKGFQQSGMRDSIA | HSDQRLA | QQYYHLPLA | 840 pM | 6 of 6 |
| KQSQSVGYESRNKNSVA | DASTRES | QQYHRLPLD | 5.3 nM | 6 of 6 |
| WLSMSVMLWSRNVNSVA | SASTREW | QQYHRLPLS | 1.8 µM | 1 of 6 |
| KLSSLQFDSYMEKENVA | ESTQVFS | QQYHRLPLA | 25 nM | 6 of 6 |
| KFTQSVLYESRNKNSVA | QASTRES | QQYHRLPLS | 600 pM | 6 of 6 |
| KSSISYLYESRNANSVA | EASTREQ | QQYHRLPLS | 1.1 nM | 6 of 6 |
| KISQKVLYEHRTKNSVA | NASTRES | QQYHRLPLS | 7.1 nM | 6 of 6 |
| MLWQHDEGFKGVKDAIA | NAELREG | QQYGRLPLS | 4.0 nM | 6 of 6 |
| HLSDTVMQGSYYRNSVA | QEQTRAD | QQYHHLPLS | 2.5 nM | 6 of 6 |
| KLPQLWLYESRNKNSVA | NASTRES | QQYHRLPLS | 1.2 nM | 6 of 6 |
| KSSQSVLEDSRNKNSVA | WASTRES | QQYARLPLS | no signal | 0 of 6 |
| KSSSSVLYESRNKNSVA | WASTRES | QQYHRLPLS | 58 nM | 3 of 6 |
| KLMQEWEYQSRMKNSVA | HASERES | QQYHRLPLS | 2.1 nM | 6 of 6 |
| KSSQSVLYLSRNGNSVA | WASTRES | TQYHRLPLS | no signal | 0 of 6 |
| KLVNSTLYESRQKNSVA | DASTRES | QQYHRLPLS | 75 nM | 6 of 6 |
| MLSEFMHMLGAKKNSIA | DLVERAN | QQYHRLPLE | 6.2 nM | 6 of 6 |
| KFHMGWEMGSRKNDNIA | EANLRFS | QQYNRLPLF | 1.4 nM | 6 of 6 |
| KSSQSQLYESRNKNSVA | YASTRES | QQYHRLPLS | 520 nM | 3 of 6 |
| KLSQQMLYEERNSNNVA | HASHRES | QQYHRLPLS | 490 pM | 6 of 6 |
| KISQGVLYENDNKNSVA | WASTRES | QQYHRLPLS | 3.5 nM | 6 of 6 |
| MITAGLRGVGRNKNSVA | NAQTRES | QHYHRLPLS | 570 nM | 6 of 6 |
| KSSQSVLYESRNKNSVA | DASTREM | QQYHRLPLS | 1.8 nM | 6 of 6 |
| KQSISGPYEDRNFNSVA | HASTRIS | QQYHRLPLS | 4.2 nM | 6 of 6 |
| KLSQSVLYESRNQNSVA | NASTREV | QQYHRLPLS | 470 pM | 6 of 6 |
| MMSQVTGMELRQQNNVA | QTSTRES | QQYDRLPLI | 6.0 nM | 6 of 6 |
| KLSMSVLYESRNKNSVA | HASTRES | QQYHRLPLS | 610 pM | 6 of 6 |
| HLSQSVDLESVHKNAIA | DLMTRES | QQYHRLPLS | 1.7 nM | 6 of 6 |
| MVYESMDQAMRTHNSIA | DNQTRES | QQYDRLPLS | 250 nM | 5 of 6 |
| KFEQSQLYESRNKNSVA | NASQRES | QQYHRLPLS | 660 pM | 6 of 6 |
| MVTQMAMTGMMSKRSVA | NAETREK | QQYHRLPLI | 10 nM | 6 of 6 |
| KVSQSQCYESRNKNNVA | NASDRMS | QQYHRLPLS | 570 pM | 6 of 6 |
| KVSGSQLYESRNSNSVA | NASNRMS | QQYHRLPLS | 2.0 nM | 6 of 6 |

Continued, with the values leading:

| Kd | replicates with signal | CDR-L1 | CDR-L2 | CDR-L3 |
|---|---|---|---|---|
| 4.9 nM | 6 of 6 | KISQSVLYESRNKNSVA | KASTRMS | QQYHRLELS |
| 500 pM | 6 of 6 | KSSQSWLYESRNKNSVA | NASAREV | QQYHRLPLS |
| 380 pM | 6 of 6 | KMSQSELYEDRNKNSVA | NASQRES | QQYHRLPLS |
| 1.7 nM | 6 of 6 | KLQQSVGYESRLANNVA | NASTRLE | QQYHRLPLS |
| 63 nM | 6 of 6 | KLYEMSASTMSNIRNVA | DNSTREQ | QQYNRLPLS |
| 7.7 nM | 6 of 6 | TISQMTSLFSQTINNVA | EVSTREP | QQYDRLPLM |
| 1.6 nM | 6 of 6 | KSSISYLYESRNKNSVA | NASTRES | QQYHRLPLS |
| 380 pM | 6 of 6 | KLSQSMLYESRNKNAVA | NASQRES | QQYHRLPLS |
| 290 pM | 6 of 6 | KSSISWLEESRNKNSVA | EASTRES | QQYHRLPLS |
| 170 nM | 3 of 6 | HMSMLTMMGMRHRNSVA | QMTTREN | QQYDRLPLM |
| 2.1 nM | 6 of 6 | SITIYTDENGLKMQSIA | GAGNRML | QQYHRLPLT |
| 7.7 nM | 6 of 6 | MIAQGLRGLGRNKNSVA | NAQTRES | QHYHRLPLS |
| 480 pM | 6 of 6 | KLSQSVLYESRNFNSVA | EASTRES | QQYHRLPLS |
| 5.3 nM | 6 of 6 | HCSQSVWQEERQKNSVA | NASQREQ | QQYHRLPLS |
| 750 pM | 6 of 6 | KLSQSFLYESRNKNSVA | EASTREQ | QQYHRLPLS |
| 2.5 nM | 6 of 6 | KLSQSHLYESRNKNSVA | NASQRLS | QQYHRLPLS |
| 2.1 nM | 6 of 6 | KIFQSWLGEQRNVNSVA | HASQRLD | QQYHRLPLS |
| 17 nM | 6 of 6 | KISYQYRFEQLSSNNIA | EVVTRLK | QQYHRLPLS |
| 670 pM | 6 of 6 | KVSQSVLYQSRNKNSVA | HASTRES | QQYHRLPLS |
| 290 pM | 6 of 6 | KFSQSVLYESRTKNSVA | NAQTRET | QQYHRLPLS |
| 20 nM | 5 of 6 | KSSPSVLYESRNKNSVA | HARTRES | QQYHRLPLS |
| 12 nM | 6 of 6 | KSSQSVMYESLNKNSVA | WASTRES | QQYHRLPLS |
| 2.0 nM | 6 of 6 | HLSINMPGQHYMYDSVA | HSERRAE | QQYYRLPLG |
| 550 pM | 6 of 6 | TIADIMGHVSKQTNNVA | DQNTRGD | QQYNRLPLS |
| 1.2 nM | 6 of 6 | QIMHFGLSANLNSKNVA | AKNLRVD | QQYNRLPLS |
| 980 pM | 6 of 6 | KLSQSNLYESRMKNSVA | NASTRES | QQYHRLPLS |
| no signal | 0 of 6 | KSSKSVLFESRNKNSVA | NASTRET | QQYHRLPLS |
| 10 nM | 6 of 6 | TISTSMRYEQSLKNAIA | NAQTRES | QQYHRLPIS |
| 22 nM | 6 of 6 | TITMFMDNLSHNRNNVA | DTSTLGS | QSYDRLPLS |
| 680 pM | 6 of 6 | KVSQSWGYESRNKNSVA | GASTRES | QQYHRLPLS |
| 49 nM | 3 of 6 | KSSQSYLQESRNKNSVA | WASTRES | QQYHRLPLS |
| 120 nM | 3 of 6 | KLGASMYVGTEAKRAIA | QDEMRVH | QQYDRLPLM |
| no signal | 0 of 6 | IVSQLMLWGLHAKNSIA | EAEIRTN | QQYDRLPLI |
| 4.7 nM | 6 of 6 | KSSISYLYESRMKNSVA | EASTRES | QQYHRLPLS |
| 3.1 nM | 6 of 6 | KIGMTLNQLMHQKNNVA | DLVMREK | QQYHRLPLS |
| 6.5 nM | 6 of 6 | NISTQIPEFEMWDNAIA | GATLRPT | QHYARLPLS |
| 4.6 nM | 6 of 6 | KLSQVTHSEHKMKNSIA | EMVTREK | QQYDRLPLS |
| 35 nM | 6 of 6 | KSSQSVLYESRNKNSVA | NASTRES | QQYHILPLS |
| 700 pM | 6 of 6 | KSLQSVLYESRNKNSVA | GASTRCD | QQYHRLPLS |

A selection of 5 entries from above:

| CDR-L1 | CDR-L2 | CDR-L3 | Kd | replicates with signal |
|---|---|---|---|---|
| HLSINMPGQHYMYDSVA | HSERRAE | QQYYRLPLG | 2.0 nM | 6 of 6 |
| MVYESMDQAMRTHNSIA | DNQTRES | QQYDRLPLS | 250 nM | 5 of 6 |
| KSSISYLYESRMKNSVA | EASTRES | QQYHRLPLS | 4.7 nM | 6 of 6 |
| KQSQSVGYESRNKNSVA | DASTRES | QQYHRLPLD | 5.3 nM | 6 of 6 |
| KSLQSVLYESRNKNSVA | GASTRCD | QQYHRLPLS | 700 pM | 6 of 6 |

Reference: Li et al. 2023, doi:10.1038/s41467-023-39022-2. File: FLAb, binding data.